Test results: BindingDB's records for doi:10.1038/sj.bjp.0701946 (Smithkline Beecham Pharmaceuticals, 1998)

The chains behind the UniProt entries cited, without tags or fusion partners.
UniProt P34969, whole entry: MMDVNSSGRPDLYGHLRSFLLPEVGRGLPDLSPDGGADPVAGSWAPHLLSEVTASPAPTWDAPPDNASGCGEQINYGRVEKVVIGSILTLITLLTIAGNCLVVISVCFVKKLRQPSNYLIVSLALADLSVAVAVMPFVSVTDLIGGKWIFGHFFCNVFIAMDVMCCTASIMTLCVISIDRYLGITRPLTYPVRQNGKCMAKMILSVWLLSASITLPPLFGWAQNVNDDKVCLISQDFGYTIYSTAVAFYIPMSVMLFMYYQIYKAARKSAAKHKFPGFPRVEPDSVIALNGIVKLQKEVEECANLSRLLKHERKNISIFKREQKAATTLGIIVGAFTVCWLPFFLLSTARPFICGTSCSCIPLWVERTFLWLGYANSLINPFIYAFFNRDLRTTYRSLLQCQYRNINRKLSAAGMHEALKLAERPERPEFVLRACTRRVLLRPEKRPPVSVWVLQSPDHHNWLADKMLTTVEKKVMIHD

Target: 5-hydroxytryptamine receptor 7 (Homo sapiens, UniProt P34969)

## CCCN(CCC)C1CCc2cccc(O)c2C1 (stereo unspecified)
  Ki: 251 nM
